According to patent publication US12171868B2 (Neurelis, Inc., priority 2022, dated 2024):

Compound: Cc1cc2c(s1)Nc1ccccc1N=C2N1CCN(C)CC1 [Olanzapine, 2-methyl-4-(4-methyl-1-piperazinyl)-10H-thieno[2,3-b] [1,5]benzodiazepine]
- compatibility between olanzapine and the individual solvents (degradation products, color changes) (Vitamin E, benzyl alcohol and ethanol, two weeks at 40° C.): significant incompatibilities existed
- USP Related Compounds B and C (dimethylacetamide and PEG 400 individually, approximately 5 mg/mL, two-month period at 40° C.): did not significantly increase
